Assay results published in US20250066350A1, “AROMATIC HETEROCYCLE-SUBSTITUTED COMPOUNDS, AND PREPARATION METHOD THEREFOR AND USE THEREOF” (Innovstone Therapeutics Limited, priority 2021, published 2025).

Protein sequences, listed by entry. Tags and fused reporters are not part of them.
UniProt Q13535, whole entry: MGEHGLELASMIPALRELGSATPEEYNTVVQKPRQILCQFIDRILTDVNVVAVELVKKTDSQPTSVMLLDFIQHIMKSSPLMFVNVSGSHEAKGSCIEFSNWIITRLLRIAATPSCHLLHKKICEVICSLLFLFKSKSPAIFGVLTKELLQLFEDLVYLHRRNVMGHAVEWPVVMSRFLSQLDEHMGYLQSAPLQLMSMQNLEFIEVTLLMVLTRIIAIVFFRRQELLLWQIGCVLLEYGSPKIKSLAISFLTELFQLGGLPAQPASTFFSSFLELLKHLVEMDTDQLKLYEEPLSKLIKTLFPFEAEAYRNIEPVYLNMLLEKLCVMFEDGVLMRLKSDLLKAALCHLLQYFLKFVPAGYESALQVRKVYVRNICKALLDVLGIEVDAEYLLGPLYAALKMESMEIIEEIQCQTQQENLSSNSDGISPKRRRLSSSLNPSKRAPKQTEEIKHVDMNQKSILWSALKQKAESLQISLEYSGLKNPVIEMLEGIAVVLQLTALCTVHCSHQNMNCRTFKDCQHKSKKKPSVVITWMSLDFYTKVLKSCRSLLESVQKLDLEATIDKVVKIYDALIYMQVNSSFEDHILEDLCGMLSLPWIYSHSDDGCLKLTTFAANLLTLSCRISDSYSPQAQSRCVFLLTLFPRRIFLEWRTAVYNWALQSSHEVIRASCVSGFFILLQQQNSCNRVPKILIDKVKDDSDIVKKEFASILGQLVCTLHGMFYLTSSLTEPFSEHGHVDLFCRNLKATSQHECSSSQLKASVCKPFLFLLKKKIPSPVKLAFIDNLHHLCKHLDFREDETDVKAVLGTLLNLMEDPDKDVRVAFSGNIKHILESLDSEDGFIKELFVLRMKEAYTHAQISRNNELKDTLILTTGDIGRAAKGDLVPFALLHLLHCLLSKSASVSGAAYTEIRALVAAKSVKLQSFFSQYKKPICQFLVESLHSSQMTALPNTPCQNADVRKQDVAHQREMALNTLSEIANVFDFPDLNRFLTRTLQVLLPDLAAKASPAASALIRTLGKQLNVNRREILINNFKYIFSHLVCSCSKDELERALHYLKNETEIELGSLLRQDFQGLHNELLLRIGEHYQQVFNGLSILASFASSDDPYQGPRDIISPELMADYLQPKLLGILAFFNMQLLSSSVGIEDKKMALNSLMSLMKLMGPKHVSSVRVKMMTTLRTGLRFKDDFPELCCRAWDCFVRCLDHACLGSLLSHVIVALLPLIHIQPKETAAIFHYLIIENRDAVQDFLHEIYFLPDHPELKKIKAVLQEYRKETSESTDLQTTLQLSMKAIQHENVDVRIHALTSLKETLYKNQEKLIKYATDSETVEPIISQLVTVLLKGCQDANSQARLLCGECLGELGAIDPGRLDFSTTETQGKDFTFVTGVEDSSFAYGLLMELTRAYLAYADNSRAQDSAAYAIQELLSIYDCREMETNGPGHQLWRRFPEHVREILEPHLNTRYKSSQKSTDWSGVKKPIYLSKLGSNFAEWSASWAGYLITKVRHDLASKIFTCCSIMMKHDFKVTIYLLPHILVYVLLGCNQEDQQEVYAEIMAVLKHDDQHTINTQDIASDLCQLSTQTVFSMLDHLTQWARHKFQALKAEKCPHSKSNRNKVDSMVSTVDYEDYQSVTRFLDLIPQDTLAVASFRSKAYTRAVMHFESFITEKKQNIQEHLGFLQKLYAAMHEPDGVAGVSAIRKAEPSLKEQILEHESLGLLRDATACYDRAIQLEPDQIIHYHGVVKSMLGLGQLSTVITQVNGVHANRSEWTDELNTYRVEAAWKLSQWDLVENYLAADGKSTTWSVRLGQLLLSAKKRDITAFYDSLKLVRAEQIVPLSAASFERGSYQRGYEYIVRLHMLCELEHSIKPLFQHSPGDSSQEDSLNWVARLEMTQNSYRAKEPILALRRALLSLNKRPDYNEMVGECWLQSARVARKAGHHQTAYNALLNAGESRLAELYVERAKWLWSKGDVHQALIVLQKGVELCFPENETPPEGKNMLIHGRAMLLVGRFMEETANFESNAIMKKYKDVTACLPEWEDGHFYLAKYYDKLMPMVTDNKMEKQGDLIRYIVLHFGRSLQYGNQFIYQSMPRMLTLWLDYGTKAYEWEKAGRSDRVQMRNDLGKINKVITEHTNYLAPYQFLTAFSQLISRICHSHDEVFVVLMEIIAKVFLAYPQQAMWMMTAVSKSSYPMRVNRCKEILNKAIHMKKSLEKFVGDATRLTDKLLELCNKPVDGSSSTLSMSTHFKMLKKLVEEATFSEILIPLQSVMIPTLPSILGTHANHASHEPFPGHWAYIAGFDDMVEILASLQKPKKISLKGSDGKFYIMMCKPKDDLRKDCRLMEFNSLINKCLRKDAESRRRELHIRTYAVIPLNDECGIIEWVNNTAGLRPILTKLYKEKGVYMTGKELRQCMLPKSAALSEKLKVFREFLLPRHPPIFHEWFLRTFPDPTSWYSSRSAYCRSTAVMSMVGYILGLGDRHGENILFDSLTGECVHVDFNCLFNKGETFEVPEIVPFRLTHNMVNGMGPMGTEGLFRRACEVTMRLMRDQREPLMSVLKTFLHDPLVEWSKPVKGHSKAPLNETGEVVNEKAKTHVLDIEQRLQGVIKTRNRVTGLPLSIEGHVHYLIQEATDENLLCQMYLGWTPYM
UniProt Q8WXE1, whole entry partner: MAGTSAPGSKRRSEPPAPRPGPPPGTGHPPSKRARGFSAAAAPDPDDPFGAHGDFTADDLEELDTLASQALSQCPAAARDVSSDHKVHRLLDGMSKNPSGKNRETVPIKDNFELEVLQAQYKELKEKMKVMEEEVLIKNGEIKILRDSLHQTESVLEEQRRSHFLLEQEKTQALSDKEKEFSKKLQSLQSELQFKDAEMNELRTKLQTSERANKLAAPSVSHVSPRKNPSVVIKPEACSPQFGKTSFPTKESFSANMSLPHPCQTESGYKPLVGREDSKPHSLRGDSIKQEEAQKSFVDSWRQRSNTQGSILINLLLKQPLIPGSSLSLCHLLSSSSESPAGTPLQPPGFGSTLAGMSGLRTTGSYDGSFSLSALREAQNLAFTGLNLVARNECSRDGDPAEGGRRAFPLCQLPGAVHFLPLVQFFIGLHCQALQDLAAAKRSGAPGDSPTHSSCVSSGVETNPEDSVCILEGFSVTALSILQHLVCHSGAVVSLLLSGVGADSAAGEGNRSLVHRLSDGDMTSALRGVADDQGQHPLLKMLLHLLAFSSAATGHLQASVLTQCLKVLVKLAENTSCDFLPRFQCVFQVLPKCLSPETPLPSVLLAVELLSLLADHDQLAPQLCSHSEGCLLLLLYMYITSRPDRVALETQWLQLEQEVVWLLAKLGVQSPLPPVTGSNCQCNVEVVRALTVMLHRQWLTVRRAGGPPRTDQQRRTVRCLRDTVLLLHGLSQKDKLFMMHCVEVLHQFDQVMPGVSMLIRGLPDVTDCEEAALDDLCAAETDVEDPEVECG

Molecular target: ATR enzyme (Homo sapiens (Human), UniProt Q13535)
Assay: Inhibitory effect on ATR enzyme (HTRF, phospho-P53)
Details: read-out: IC50 for ATR enzyme inhibition; 90 minutes incubation, 150 nM ATP final
Method: Test Example 1. Inhibitory Effect of Compounds of the Present Invention on ATR Enzyme
The following method is used to determine the inhibitory effect of the compounds of the present invention on the ATR enzyme. The experimental method is briefly described as follows:
1. ATR enzyme (Eurofins Pharma Discovery Services, 14-953M)
2. GST-tagged P53 protein (Eurofins Pharma Discovery Services, 14-952M)
15 nM ATR enzyme, 80 nM P53 protein, 300 nM ATP (the final concentrations were 40 nM and 150 nM, respectively), and small molecule compounds of various concentrations (the final concentrations (nM) of the ten points were 2985.0, 895.5, 298.5, 110.56, 33.17, 11.06, 4.09, 1.23, 0.41 and 0.15, respectively, and the final dimethyl sulfoxide concentration was 0.498%) were mixed and incubated at room temperature for 90 minutes. 10 μL of 2× cocktail buffer was added to the mixture of ATR, compound and substrate in the assay plate (anti-phospho-p53-Eu and anti-GST-d2 were diluted in the assay buffer). […] The FRET signal (endpoint) was measured in the Envision instrument (HTRF 665/612 ratio was calculated at 665 nm emission and 612 nm emission). […]
The inhibitory activity of the compounds of the present invention on the ATR enzyme can be determined by the test described above, and the measured IC50 values are shown in Table 1.

## CNC(=O)C#Cc1cc(N2CCOC[C@H]2C)nc2c1cnn2-c1cc[nH]n1
  pIC50: 7.30 to 8.00

pIC50: −log10 of the molar value.
